Only a part is listed here, and it is no random draw. Calls of active or inactive are those of the source.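 Rule for the calls: active = mean inhibition at 5 µM reaching about 45% (limit read from the data); inactive = the rest.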
Experiment: Gli-SUFU pathway antagonists, confirmation, single concentration, luciferase luminescence, Sufu-KO-LIGHT cells (AID 602428);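 note: plate controls were DMSO-treated cells for no effect and wells lacking cells for full effect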
Conditions: Gli luciferase reporter, at 5 µM, stronger effect = higher value
With CN1CCCC(OC(=O)C(c2ccccc2)c2ccccc2)C1 (stereo not drawn) the inhibition was inactive: 16%. For N#C/C(=C\c1ccc(N(CCBr)CCBr)cc1)C(N)=O, the inhibition was active: 74.1%. With CC(=O)NC(SC(=S)N(C)C)C(Cl)(Cl)Cl (stereo not drawn) the inhibition was active: 77.7%.

Reference: PubChem BioAssay AID602428 (Sanford-Burnham Center for Chemical Genomics, 2012)
